1 compound from patent publication US20140221639A1, “RADIOLABELED NUCLEOSIDE ANALOGUE, AND PREPARATION METHOD AND USE THEREOF” (Institute of Nuclear Energy Research Atomic Energy Council, …, priority 2011, published 2014) can be followed below.

This data set concerns NG4TL4-WT tumor. Nature of the data set: Biodistribution study in tumor-bearing mice. The data set is classed as in vivo. To be noted: 80~90 μCi tail vein, FVB/N mice with NG4TL4-WT tumor. The source says: […] Tumor and 13 other tissures (blood, heart, lung, liver, stomach, small intestine, large intestine, spleen, pancreas, kidney, bone, marrow, and muscle) were removed, rinsed, weighed, and determined for radioactivity with a γ scintilation counter. Uptake of the radioactive trancers in the tissues (counts per min) was calibrated against decay, normalizedto sample weight, and expressed as percentages of injected dosage per gram of tissue (% ID/g) and aggregation ratio of tumor to blood.

Regarding `O=c1[nH]c(=O)n([C@H]2C[C@H](O)[C@@H](CO)O2)cc1[131I]` [^131I-IUdR, 5-[^124/131I]iodo-2′-deoxyuridine], the “Biodistribution Brain” value by setting is: (5 min) 1.51 ± 0.0S; (30 min) 0.50 ± 0.12 % ID/g; (1 h) 0.34 ± 0.07 % ID/g; (2 h) 0.17 ± 0.02 % ID/g; (4 h) 0.13 ± 0.06 % ID/g; (8 h) 0.03 ± 0.01 % ID/g. For the same compound, the “T/B (aggregation ratio of tumor to blood)” value runs as follows: (5 min) 0.47; (30 min) 0.73; (1 h) 1.03; (2 h) 134; (4 h) 2.03; (8 h) 5.17. For the same compound, the “T/M (tumor-muscle aggregation ratio)” value runs as follows: (5 min) 1.67; (30 min) 4.21; (1 h) 4.97; (2 h) 6.06; (4 h) 7.49; (8 h) 19.91.
